Molecules are shown by their SMILES. Some results are limits rather than exact numbers.

Sequences of proteins named here, by UniProt entry; tags and fusion partners are left off. A change or cut given only in a name is not applied to a line headed by its entry.
UniProt P00915: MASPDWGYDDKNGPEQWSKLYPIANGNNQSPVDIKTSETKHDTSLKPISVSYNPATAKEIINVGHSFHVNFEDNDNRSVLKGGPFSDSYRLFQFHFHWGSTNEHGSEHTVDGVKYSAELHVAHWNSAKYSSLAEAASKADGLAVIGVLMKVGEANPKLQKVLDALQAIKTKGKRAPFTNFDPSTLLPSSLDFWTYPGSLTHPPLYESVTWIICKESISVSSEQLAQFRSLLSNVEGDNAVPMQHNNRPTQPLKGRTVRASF

The record followed here is ChEMBL document CHEMBL1138690, “Carbonic anhydrase inhibitors. Inhibition of the newly isolated murine isozyme XIII with anions” (Bioorg Med Chem Lett, 2004).

This assay deals with Carbonic anhydrase 1 (Homo sapiens, UniProt P00915).

Broadly, the Ki is the equilibrium dissociation constant of an inhibitor or competing ligand from its target. High values mean lower affinity, low ones higher affinity. Consider `F` [FLUORIDE ION], for which the Ki was above 300 mM.
